In patent publication US20090036365A1:

Key:
Kallikrein = experiment: display phage binding to immobilised protease
Thrombin = experiment: display phage binding to immobilised protease
Trypsin [1] = experiment: display phage binding to immobilised protease
Trypsin [2] = experiment: display phage binding to immobilised trypsin, 2 washes
human plasmin (human) = human plasmin (human) (UniProt P00747); experiment: display phage binding to immobilised protease

Row | relative binding (LACI-K1 phage = unit) (fold of LACI-K1 phage) (Kallikrein) | relative binding (LACI-K1 phage = unit) (fold of LACI-K1 phage) (Thrombin) | relative binding (LACI-K1 phage = unit) (fold of LACI-K1 phage) (Trypsin [1]) | relative binding (LACI-K1 phage = unit) (fold of LACI-K1 phage) (Trypsin [2]) | relative binding (LACI-K1 phage = unit) (fold of LACI-K1 phage) (human plasmin (human)) | Substance
1 | 1.7 | 1.1 | 0.3 | 0.8 | – | Bovine Pancreatic Trypsin Inhibitor (BPTI) (from UniProt P00974 36-93)
2 | – | – | – | – | 88 | Bovine Pancreatic Trypsin Inhibitor (BPTI) (from UniProt P00974 36-93) (other; other documents disagree on this pair)
